# Reference: patent publication US20120330012A1, “Novel Tricyclic Compounds” (ABBOTT LABORATORIES, priority 2011, published 2012)
# By UniProt entry, the sequences of proteins in these tests, tags left out. Residues count along the entry.
# UniProt P52333, 811-1103: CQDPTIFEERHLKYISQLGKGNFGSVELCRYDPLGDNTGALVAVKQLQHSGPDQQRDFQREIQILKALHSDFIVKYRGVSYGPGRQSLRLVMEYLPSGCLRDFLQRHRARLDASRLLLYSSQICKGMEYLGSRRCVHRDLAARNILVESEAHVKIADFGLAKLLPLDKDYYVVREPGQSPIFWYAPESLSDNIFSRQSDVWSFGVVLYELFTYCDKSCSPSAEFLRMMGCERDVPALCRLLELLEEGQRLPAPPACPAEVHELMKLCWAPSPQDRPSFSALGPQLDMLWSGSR
# Target: T1, Jak3 (Homo sapiens, UniProt P52333)
# T1 construct: Jak3 enzyme (aa 811-1103); expressed in SF9 cells as a GST fusion; GST; made in house; host or cells: SF9 insect cells
# Assay: In vitro Jak3 kinase activity measured by trFRET
# Type: biochemical
# Settings: Jak3 enzyme aa 811-1103, 0.001 mM ATP
# Excerpt: In Vitro Jak3 Kinase Activity Measured by Time-Resolved Fluorescence Resonance Energy Transfer (trFRET)
smiles,measurement,value
"c1cc2c(ncn3cnc(C4CCCCC4)c23)[nH]1 [Example #1, 1-Cyclohexyl-7H-imidazo[1,5-c]pyrrolo[3,2-e]pyrimidine]",IC50,100 to 1000 nM
